# Measured values taken from published antibiotic growth screens (doi:10.1038/s41589-023-01349-8).
# Some of the results follow.
# System: A. baumannii ATCC 17978
# Test: relative growth (fraction of control); higher = less inhibition
# Conditions: 50 µM
row,SMILES,relative growth
1,Cc1oncc1C(=O)Nc1ccc(C(F)(F)F)cc1,0.954
2,COc1cc(C)nc2nc(S(C)(=O)=O)nn12,1.17
3,O=C1C[C@@H]2C(=O)NCCN2C(NC(=O)c2ccccc2)=N1,1.13
4,C(=N\Cc1cccnc1)/c1c2ccccc2cc2ccccc12,0.932
5,Cc1ccc(S(=O)(=O)N2C[C@H](O)COC[C@@H]3O[C@H](CC(=O)NCc4ccc(Cl)c(Cl)c4)CC[C@H]32)cc1,0.766
6,CN1CCN(C(=O)C[C@@H]2C=C[C@H](NC(=O)c3ccc4c(c3)OCO4)[C@H](CO)O2)CC1,0.812
7,CC1CC(OC(=O)C(O)c2ccccc2)CC(C)(C)C1 (centres undefined),0.949
8,COc1ccccc1-c1ccc2c(c1)O[C@H](CN(C)CC1CCOCC1)[C@H](C)CN([C@@H](C)CO)S2(=O)=O,0.896
9,Cc1ccc(C(=O)N2c3ccccc3Sc3ccccc32)cc1,1
10,CCOC(=O)[C@H](CCc1ccccc1)N[C@@H](C)C(=O)N1Cc2ccccc2C[C@H]1C(=O)O,1.16
11,O=C(O)c1cccc(O)c1O,0.953
12,NCC[C@@H]1CC[C@@H](NC(=O)c2ccccc2F)[C@@H](CO)O1,1.3
13,CC(=O)N[C@@H]1[C@@H](Oc2ccc(C(C)=O)cc2)O[C@H](CO)[C@H](O)[C@@H]1O,1.14
14,CCOC(=O)CN1CCN(C=O)CC1,1.03
15,O=C(NCc1nc2ccccc2[nH]1)C1=C[C@H](c2csc3ccccc23)C[C@H](OCc2ccc(CO)cc2)O1,1.07
16,O=C(C[C@H]1C=C[C@@H](NS(=O)(=O)c2ccc(F)cc2)[C@H](CO)O1)NCc1ccc(Cl)c(Cl)c1,0.91
17,COC(=O)CCCCCCC(=O)N/N=C/[C@H](O)[C@@H](O)[C@H](O)[C@H](O)CO[C@H]1O[C@H](CO)[C@H](O)[C@H](O)[C@H]1O,1.17
18,CC1(C)[C@H]2CC[C@@]1(C)c1nn(-c3ccccc3)c(C(F)(F)F)c12,0.937
19,C/N=C(\NC)NCCC[C@H](N)C(=O)O,0.891
20,C[C@H](O)C#Cc1ccc2c(c1)O[C@H](CN(C)C(=O)c1ccccc1)[C@@H](C)CN([C@H](C)CO)S2(=O)=O,1.13
21,Cn1cnc(S(=O)(=O)N[C@@H]2CC[C@@H](CC(=O)NCC3CC3)O[C@@H]2CO)c1,0.818

row,SMILES,relative growth
1,COc1ccc(NC(=O)Nc2ccc3c(c2)[C@H]2C[C@H](CC(=O)NCC(F)(F)F)O[C@@H](CO)[C@H]2O3)cc1,1.06
2,COc1ccc2c(=O)ccoc2c1,1.13
3,COc1ccc([Si](C)(C)[C@@H]2[C@@H](CCOC(=O)NCCCCCC(=O)NO)O[C@@]3(C(=O)N(Cc4ccccc4)c4ccc(NC(=O)[C@@H](C)OC(=O)NCCCCCC(=O)NO)cc43)[C@H]2C)cc1,0.934
4,COCC(=O)N(C)C[C@@H]1Oc2cc(C#CC(C)(C)O)ccc2S(=O)(=O)N([C@@H](C)CO)C[C@@H]1C,1.08
5,C=CC(C1=CC(=O)C=CC1=O)c1ccccc1 (centres undefined),0.981
6,O=C[C@H](O)[C@@H](O)[C@H](O)CO,1.21
7,CCNc1nc(NCC)nc(C(=O)OCCO)n1,0.877
8,O=C(C[C@H]1C[C@@H]2c3cc(NC(=O)C4CCOCC4)ccc3O[C@@H]2[C@@H](CO)O1)NCCN1CCCCC1,1.1
9,CC(C)C[C@@](O)(CC(=O)O)C(=O)O,1.02
10,Cc1cccc(N[C@H]2CS(=O)(=O)C[C@@H]2O)c1,1.1
11,O=C(C[C@H]1CC[C@@H]2[C@H](COC[C@H](O)CN2S(=O)(=O)c2ccc(Cl)cc2)O1)N[C@H]1CCN(Cc2ccccc2)C1,0.896
12,C=CCOC(=O)[C@@H]1[C@H]2C(=O)O[C@H](c3ccccc3)[C@H](c3ccccc3)N2[C@H](c2ccc(OCCOC(=O)[C@@H]3C[C@@H]4C(=O)NCC(=O)N4[C@@H]3c3ccc(O)cc3)cc2)[C@@]12C(=O)Nc1ccc(I)cc12,1.24
13,COc1c2ccoc2c(OC)c2oc(=O)ccc12,1.01
14,C[C@H](N)C(=O)N1CCc2ccccc2C1,1.06
15,C[C@H](CO)N1C[C@H](C)[C@@H](CN(C)C(=O)Nc2ccc(C(F)(F)F)cc2)Oc2ncc(C3=CCCC3)cc2C1=O,0.968
16,C[C@H](CO)N1C[C@H](C)[C@H](CN(C)C)Oc2cc(C#C[C@@H](C)O)ccc2S1(=O)=O,0.853
17,CN(C)CC(=O)N[C@@H]1C=C[C@@H](CC(=O)NCCN2CCCCC2)O[C@H]1CO,0.933
18,O=C1O[C@@H](c2ccccc2)[C@@H](c2ccccc2)N2[C@@H](c3ccc(OCCO)cc3)[C@]3(C(=O)Nc4ccc(C#CC5=CCCCC5)cc43)[C@@H](C(=O)NC[C@H](O)c3ccccc3)[C@H]12,1.2
19,CN(C)c1ccc(NC(=O)CN)cc1,1.06
20,C[C@@H]1C[C@H](C)CN(S(=O)(=O)N2CCC[C@H](C(=O)NCCN3CCOCC3)C2)C1,1.12
21,c1ccc2c(CSc3nc4ccccc4s3)cccc2c1,1.14

row,SMILES,relative growth
1,COC[C@@H](O)CSc1[nH]c(C)nc1[N+](=O)[O-],1.01
2,COc1ccc2c(c1)OC/C(=C\c1ccc(OC)c(O)c1)C2=O,0.957
3,COc1ccc(-c2cc(=O)c3c(O)cc(O)c(-c4cc(-c5cc(=O)c6c(O)cc(O)cc6o5)ccc4OC)c3o2)cc1,1.01
4,COCCCNC(=O)C[C@H]1SC(=N)NC1=O,1.03
5,COC(=O)C1=C(C)NC(C)=C(C(=O)OCCN2CCN(C(c3ccccc3)c3ccccc3)CC2)C1c1cccc([N+](=O)[O-])c1 (centres undefined),1.32
6,CCOc1nc2cccc(C(=O)OC(C)OC(=O)OC3CCCCC3)c2n1Cc1ccc(-c2ccccc2-c2nnn[nH]2)cc1 (centres undefined),0.95
7,CC[C@@H](C)C(=O)O[C@H]1[C@@H]2CC3=C4CC(=O)O[C@@H](c5ccoc5)[C@]4(C)CC[C@@H]3[C@@](C)(C2=O)[C@@H](CC(=O)OC)C1(C)C,1.08
8,CCS(=O)(=O)NCC[C@@H]1CC[C@H](NC(=O)Cc2ccccn2)[C@@H](CO)O1,0.828
9,CC(=O)Nc1ccccc1,0.935
10,COc1ccc(C(=O)Nc2cccc(CN3C(=O)[C@@]4(O[C@@H](CC(=O)N5CCC[C@H]5CO)[C@H]([Si](C)(C)c5ccc(OC)cc5)[C@H]4C)c4ccccc43)c2)cc1,1.03
11,C[C@H](CO)N1C[C@H](C)[C@H](CN(C)S(C)(=O)=O)Oc2cc(-c3cccc(F)c3)ccc2S1(=O)=O,0.949
12,NC(=S)N[C@H]1C[C@@H]2C=C[C@H]1C2,1.09
13,CC(=O)Oc1ccc(-c2cc(=O)c3c(OC(C)=O)cc(OC(C)=O)cc3o2)cc1,0.907
14,COc1ccccc1CN1C(=O)c2ccccc2[C@](Cc2ccccc2I)(C(=O)NCC(C)C)[C@@H]1c1ccc(CO)cc1,1.03
15,O=C1O[C@@H](c2ccccc2)[C@@H](c2ccccc2)N2[C@@H](c3ccc(O)cc3)[C@]3(C(=O)Nc4ccc(C#CCCO)cc43)[C@@H](C(=O)N3CCCCCCC3)[C@H]12,0.928
16,CC(C(=O)O)c1ccc2c(c1)Cc1cccnc1O2 (centres undefined),1
17,O=C(C[C@@H]1CC[C@H](NC(=O)C2CC2)[C@@H](CO)O1)NCCCN1CCOCC1,0.979
18,C[C@H](CCC(=O)O)[C@H]1CC[C@H]2[C@@H]3CC=C4C[C@@H](O)CC[C@]4(C)[C@H]3CC[C@]12C [3beta-HYDROXYCHOL-5-ENIC ACID],0.879
19,CC(C)(O)c1ccccc1CC[C@@H](SCC1(CC(=O)[O-])CC1)c1cccc(/C=C/c2ccc3ccc(Cl)cc3n2)c1.[Na+],1.34
20,O=C(CCCCCCC(=O)Nc1ccc(C(=O)NCCOCCOCCNC(=O)c2ccc(NC(=O)CCCCCCC(=O)NO)cc2)cc1)NO,0.841
21,COCC(=O)N(C)C[C@H]1Oc2cc(C#Cc3ccccc3)ccc2S(=O)(=O)N([C@@H](C)CO)C[C@H]1C,0.954

row,SMILES,relative growth
1,Cn1cccc1[C@@H](CN)N1CCc2ccccc2C1,0.926
2,COC[C@@H]1CN(C)N=C(C2CC2)O1,1.19
3,COc1cccc(S(=O)(=O)N[C@@H]2C=C[C@H](CC(=O)NC3CCC3)O[C@@H]2CO)c1,1.1
4,N[C@@H](Cc1ccc2nonc2c1)C(=O)O,1.07
5,O=C(NCCN1CCOCC1)C(=O)NC[C@H]1COc2ccccc2O1,1.07
6,Cc1cc(-c2ccccc2)oc2cc3ccccc3c1-2,0.974
7,N#CC1(N[C@@H](Cc2ccccc2)c2ccccc2)CCCCCC1,0.849
8,C=C(C)[C@@H]1CC[C@]2(C)CC[C@]3(C)[C@@H](CCC4[C@@]5(C)CC[C@H](O)C(C)(C)C5CC[C@]43C)C12 (some centres undefined),0.961
9,CC(=O)Oc1ccccc1C(=O)O,1.01
10,Cc1cccc(S(=O)(=O)N2C[C@H](O)COC[C@@H]3O[C@@H](CC(=O)NCCCN4CCOCC4)CC[C@H]32)c1,0.974
11,C[C@@H]1CN([C@H](C)CO)S(=O)(=O)c2ccc(-c3cccc(F)c3)cc2O[C@H]1CN(C)S(C)(=O)=O,1.04
12,O=c1cc(-c2ccccc2)oc2cc(O)ccc12,1.06
13,C/C=C1\[C@H](O[C@@H]2O[C@H](CO)[C@@H](O)[C@H](O)[C@H]2O)OC=C(C(=O)OC)[C@H]1CC(=O)OC,1.06
14,N=C(N)NS(=O)(=O)c1ccc(N)cc1,0.891
15,CCCC#Cc1ccc2c(c1)O[C@@H](CN(C)C(=O)c1cnccn1)[C@@H](C)CN([C@@H](C)CO)S2(=O)=O,0.963
16,O=c1[nH]c(=O)n([C@@H]2O[C@H](CO)[C@@H](O)[C@H]2O)cc1Br,1.13
17,Cc1nc2[nH]c(C)c(CCC(=O)O)c(=O)n2n1,1.04
18,CC1=C(/C=C/C(C)=C/C=C/C(C)=C/C(=O)O)C(C)(C)CCC1,1.04
19,CC(N)(Cc1ccc2c(c1)OCO2)C(=O)O (centres undefined),1.02
20,COCCNC(=O)C[C@H]1C[C@H]2c3cc(NS(C)(=O)=O)ccc3O[C@H]2[C@@H](CO)O1,1.12
21,Cc1ccc(S(=O)(=O)NCCC(=O)N2CCOCCOCCOCC2)cc1,0.913
